In IntAct's records for PubMed 31515488:

B1: TNFAIP3-interacting protein 1 (Homo sapiens), Q15025 (parent)
chain: MEGRGPYRIYDPGGSVPSGEASAAFERLVKENSRLKEKMQGIKMLGELLEESQMEATRLRQKAEELVKDNELLPPPSPSLGSFDPLAELTGKDSNVTASPTAPACPSDKPAPVQKPPSSGTSSEFEVVTPEEQNSPESSSHANAMALGPLPREDGNLMLHLQRLETTLSVCAEEPDHGQLFTHLGRMALEFNRLASKVHKNEQRTSILQTLCEQLRKENEALKAKLDKGLEQRDQAAERLREENLELKKLLMSNGNKEGASGRPGSPKMEGTGKKAVAGQQQASVTAGKVPEVVALGAAEKKVKMLEQQRSELLEVNKQWDQHFRSMKQQYEQKITELRQKLADLQKQVTDLEAEREQKQRDFDRKLLLAKSKIEMEETDKEQLTAEAKELRQKVKYLQDQLSPLTRQREYQEKEIQRLNKALEEALSIQTPPSSPPTAFGSPEGAGALLRKQELVTQNELLKQQVKIFEEDFQRERSDRERMNEEKEELKKQVEKLQAQVTLSNAQLKAFKDEEKAREALRQQKRKAKASGERYHVEPHPEHLCGAYPYAYPPMPAMVPHHGFEDWSQIRYPPPPMAMEHPPPLPNSRLFHLPEYTWRLPCGGVRNPNQSSQVMDPPTARPTEPESPKNDREGPQ
partner: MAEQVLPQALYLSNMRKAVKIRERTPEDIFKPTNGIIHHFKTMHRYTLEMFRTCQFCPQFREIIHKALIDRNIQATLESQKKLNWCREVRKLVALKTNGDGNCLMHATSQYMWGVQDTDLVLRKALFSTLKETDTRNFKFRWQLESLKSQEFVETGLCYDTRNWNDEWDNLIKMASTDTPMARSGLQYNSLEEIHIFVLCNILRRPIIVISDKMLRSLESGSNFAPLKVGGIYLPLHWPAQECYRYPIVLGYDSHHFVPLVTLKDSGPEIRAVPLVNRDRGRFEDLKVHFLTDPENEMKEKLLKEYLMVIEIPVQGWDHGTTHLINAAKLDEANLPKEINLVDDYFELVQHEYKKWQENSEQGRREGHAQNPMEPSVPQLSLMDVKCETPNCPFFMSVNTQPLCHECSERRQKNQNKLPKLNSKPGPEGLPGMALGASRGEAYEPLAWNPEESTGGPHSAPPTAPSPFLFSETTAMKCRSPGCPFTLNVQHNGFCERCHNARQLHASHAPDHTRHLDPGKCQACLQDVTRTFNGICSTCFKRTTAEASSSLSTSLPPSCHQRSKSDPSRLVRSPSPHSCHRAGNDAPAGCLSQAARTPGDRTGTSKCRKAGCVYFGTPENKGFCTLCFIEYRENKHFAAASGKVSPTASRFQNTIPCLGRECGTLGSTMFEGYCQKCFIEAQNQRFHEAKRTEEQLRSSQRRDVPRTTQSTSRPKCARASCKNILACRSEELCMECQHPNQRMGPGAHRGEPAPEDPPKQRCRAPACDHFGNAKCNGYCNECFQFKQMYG
B2: PHD finger protein 21A (Homo sapiens), Q96BD5 (parent)
chain: MELQTLQEALKVEIQVHQKLVAQMKQDPQNADLKKQLHELQAKITALSEKQKRVVEQLRKNLIVKQEQPDKFQIQPLPQSENKLQTAQQQPLQQLQQQQQYHHHHAQQSAAASPNLTASQKTVTTASMITTKTLPLVLKAATATMPASVVGQRPTIAMVTAINSQKAVLSTDVQNTPVNLQTSSKVTGPGAEAVQIVAKNTVTLVQATPPQPIKVPQFIPPPRLTPRPNFLPQVRPKPVAQNNIPIAPAPPPMLAAPQLIQRPVMLTKFTPTTLPTSQNSIHPVRVVNGQTATIAKTFPMAQLTSIVIATPGTRLAGPQTVQLSKPSLEKQTVKSHTETDEKQTESRTITPPAAPKPKREENPQKLAFMVSLGLVTHDHLEEIQSKRQERKRRTTANPVYSGAVFEPERKKSAVTYLNSTMHPGTRKRGRPPKYNAVLGFGALTPTSPQSSHPDSPENEKTETTFTFPAPVQPVSLPSPTSTDGDIHEDFCSVCRKSGQLLMCDTCSRVYHLDCLDPPLKTIPKGMWICPRCQDQMLKKEEAIPWPGTLAIVHSYIAYKAAKEEEKQKLLKWSSDLKQEREQLEQKVKQLSNSISKCMEMKNTILARQKEMHSSLEKVKQLIRLIHGIDLSKPVDSEATVGAISNGPDCTPPANAATSTPAPSPSSQSCTANCNQGEETK
partner: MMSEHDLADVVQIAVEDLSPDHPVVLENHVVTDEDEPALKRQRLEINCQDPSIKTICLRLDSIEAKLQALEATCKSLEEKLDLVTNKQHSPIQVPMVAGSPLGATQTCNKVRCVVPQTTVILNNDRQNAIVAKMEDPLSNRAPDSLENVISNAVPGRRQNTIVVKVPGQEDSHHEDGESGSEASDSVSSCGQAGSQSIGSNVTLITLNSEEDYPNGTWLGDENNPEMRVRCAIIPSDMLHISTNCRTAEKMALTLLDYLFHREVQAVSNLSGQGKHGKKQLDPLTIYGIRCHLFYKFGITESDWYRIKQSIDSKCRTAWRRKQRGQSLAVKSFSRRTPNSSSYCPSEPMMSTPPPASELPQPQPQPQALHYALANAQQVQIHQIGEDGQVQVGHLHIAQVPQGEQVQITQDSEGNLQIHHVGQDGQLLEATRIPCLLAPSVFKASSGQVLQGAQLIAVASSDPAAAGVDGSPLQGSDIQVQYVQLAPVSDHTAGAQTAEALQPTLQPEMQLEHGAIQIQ
B3: ADP-ribosylation factor-like protein 2 (Homo sapiens), P36404 (parent)
chain: MGLLTILKKMKQKERELRLLMLGLDNAGKTTILKKFNGEDIDTISPTLGFNIKTLEHRGFKLNIWDVGGQKSLRSYWRNYFESTDGLIWVVDSADRQRMQDCQRELQSLLVEERLAGATLLIFANKQDLPGALSSNAIREVLELDSIRSHHWCIQGCSAVTGENLLPGIDWLLDDISSRIFTAD
partner: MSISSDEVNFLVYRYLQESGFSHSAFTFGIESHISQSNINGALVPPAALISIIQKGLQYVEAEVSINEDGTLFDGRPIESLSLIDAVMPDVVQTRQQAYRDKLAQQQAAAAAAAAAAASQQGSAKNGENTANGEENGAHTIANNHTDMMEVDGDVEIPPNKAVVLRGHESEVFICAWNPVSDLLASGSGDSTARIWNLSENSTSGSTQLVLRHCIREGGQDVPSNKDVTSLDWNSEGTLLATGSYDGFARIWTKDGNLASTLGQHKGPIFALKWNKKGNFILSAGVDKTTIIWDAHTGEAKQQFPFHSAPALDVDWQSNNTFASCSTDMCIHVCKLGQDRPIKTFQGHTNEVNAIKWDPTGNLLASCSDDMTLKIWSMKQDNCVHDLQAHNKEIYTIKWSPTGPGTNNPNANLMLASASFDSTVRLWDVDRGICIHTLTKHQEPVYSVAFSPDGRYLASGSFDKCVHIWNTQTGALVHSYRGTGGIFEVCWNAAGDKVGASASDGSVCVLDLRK
B4: Protein INCA1 (Homo sapiens), Q0VD86 (parent)
chain: MQVQDDGVNLIPFAKCSRVVSRSPPPRLPSQSLRPMPQRYGDVFWKNLNQRPTPTWLEEQHIPPMLRATGCSQLGLYPPEQLPPPEMLWRRKKRRPCLEGMQQQGLGGVPARVRAVTYHLEDLRRRQSIINELKKAQWGSSGAASEPVVLGEEGCGFPSTNEYPDLEEERATYPQEEDRFLTPGRAQLLWSPWSPLDQEEACASRQLHSLASFSTVTARRNPLHNPWGMELAASEE
partner: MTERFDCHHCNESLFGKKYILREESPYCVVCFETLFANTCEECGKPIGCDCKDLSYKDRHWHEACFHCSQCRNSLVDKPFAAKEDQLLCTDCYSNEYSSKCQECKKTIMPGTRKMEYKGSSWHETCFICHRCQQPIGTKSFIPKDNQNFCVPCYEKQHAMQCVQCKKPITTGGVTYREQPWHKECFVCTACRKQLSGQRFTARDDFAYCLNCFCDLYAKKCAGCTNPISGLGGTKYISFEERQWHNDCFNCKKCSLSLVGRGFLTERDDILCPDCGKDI
B5: PHD finger protein 21A (Homo sapiens), Q96BD5 (parent)
chain: B2 chain
partner: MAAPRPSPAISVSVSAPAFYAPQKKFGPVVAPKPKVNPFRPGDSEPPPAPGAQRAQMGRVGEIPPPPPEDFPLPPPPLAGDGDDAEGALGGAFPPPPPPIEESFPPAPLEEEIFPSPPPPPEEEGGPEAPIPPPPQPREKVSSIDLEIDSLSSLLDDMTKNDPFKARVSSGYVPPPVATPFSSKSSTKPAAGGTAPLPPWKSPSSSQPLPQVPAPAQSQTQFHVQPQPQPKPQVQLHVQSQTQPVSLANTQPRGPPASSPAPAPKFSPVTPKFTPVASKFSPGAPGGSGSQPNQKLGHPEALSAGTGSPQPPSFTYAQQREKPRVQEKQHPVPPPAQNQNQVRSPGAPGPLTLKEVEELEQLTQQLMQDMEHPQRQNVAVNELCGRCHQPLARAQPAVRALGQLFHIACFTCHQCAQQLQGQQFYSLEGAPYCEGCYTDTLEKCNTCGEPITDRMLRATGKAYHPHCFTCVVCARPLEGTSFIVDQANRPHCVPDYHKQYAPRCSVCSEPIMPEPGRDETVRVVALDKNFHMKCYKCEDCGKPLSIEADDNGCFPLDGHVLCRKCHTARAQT
B6: TNFAIP3-interacting protein 1 (Homo sapiens), Q15025 (parent)
chain: B1 chain
partner: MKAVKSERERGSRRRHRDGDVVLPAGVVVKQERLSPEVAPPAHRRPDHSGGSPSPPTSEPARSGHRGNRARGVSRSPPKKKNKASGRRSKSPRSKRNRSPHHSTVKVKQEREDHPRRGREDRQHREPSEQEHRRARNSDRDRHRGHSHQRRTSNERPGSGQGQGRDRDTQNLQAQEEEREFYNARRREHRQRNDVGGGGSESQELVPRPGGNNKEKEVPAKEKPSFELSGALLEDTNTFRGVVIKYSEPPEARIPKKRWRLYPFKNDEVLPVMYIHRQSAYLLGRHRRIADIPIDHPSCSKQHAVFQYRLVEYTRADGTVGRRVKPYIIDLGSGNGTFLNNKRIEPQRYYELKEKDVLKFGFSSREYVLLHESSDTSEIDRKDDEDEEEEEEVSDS

Variants of: B1
Details: with tnap3_human TNFAIP3, P21580

Row | effect of a mutation on the interaction | Variant
1 | with no effect | Q214K
2 | with no effect | K30T
3 | with no effect | G178S
4 | with no effect | V16M

Variants of: B2
Details: with banp_human BANP

Row | effect of a mutation on the interaction | Variant
5 | with no effect | R347H

Variants of: B3
Details: with tbl1r_human TBL1XR1, Q9BZK7

Row | effect of a mutation on the interaction | Variant
6 | with no effect | R139C

Variants of: B4
Details: with fhl2_human FHL2, Q14192

Row | effect of a mutation on the interaction | Variant
7 | with no effect | E153D

Variants of: B5
Details: with zyx_human ZYX

Row | effect of a mutation on the interaction | Variant
8 | with no effect | R347H

Variants of: B6
Details: with snip1_human SNIP1, Q8TAD8

Row | effect of a mutation on the interaction | Variant
9 | with no effect | G178S
